Values quoted from earlier work as cited in patent US5744455A (priority 1993, dated 1998).

Tested on: myocardial lesions
Details: in vivo

C[C@@H](CN1CC(=O)NC(=O)C1)N1CC(=O)NC(=O)C1 [ICRF 187, (+)-1,2-bis(3,5-dioxopiperazinyl-1-yl)propane]
animals with cardiac lesions absent: two | animals with minimal cardiac lesions: five of the seven
